Assay results published in patent US10532064B2, “Biophosphonate compounds and gamma delta T cell-mediated therapy for treating epstein-barr virus-associated disorders” (priority 2014, dated 2020).

Test system: Vγ9Vδ2-T cells
Test: Expansion of Vγ9Vδ2-T cells from huPBMC in vitro with PAM and IL-2
Format: cell-based, human
Conditions: IL-2 in the absence of PAM
Procedure: The data are representative of 4 independent experiments. […] Data are representative of 4 independent experiments. […] Data are representative of 4 independent experiments.
Pamidronate-expanded Vγ9Vδ2-T cells were generated as described before (Tu et al., 2011). Briefly, huPBMC were cultured in RPMI 1640 medium supplemented with 10% FBS. Pamidronate was added at day 0 and day 3 to a final concentration 9 μg/ml. Recombinant human IL-2 (Invitrogen) was added to a final concentration of 500 UI/ml every 3 days from day 3. […] The purity of Vγ9Vδ2-T cells as determined by flow cytometry using anti-CD3 and anti-V62 mAbs, was consistently >97%.
Human PBMCs were isolated from buffy coat preparation or anticoagulated peripheral blood by Ficoll-paque (GE Health life Science) gradient centrifugation. The PBMCs were cultured in 10% FBS-RPMI1640 supplemented with 15 ul of expansion reagent A; 25 ul of expansion reagent B was added from day 3 post culture. […] Vγ9Vδ2-T cells only accounted for 1-5% (mean, 3%) in the peripheral blood PBMC from randomly selected samples (FIG. 10A). […] Data are representative for 4 independent experiments.

With IL-2: human recombinant Interleukin-2 the “expansion of Vγ9Vδ2-T cells” value was “could not induce the expansion”.
